The test has as its target human GlyT1c transporter (Homo sapiens (Human), UniProt P48067). Put plainly: Radioligand binding assay using recombinant CHO cell membranes expressing human GlyT1. The settings on record: read-out: radioligand binding Kiapp, tested form: HCl.

By UniProt entry, the sequences of proteins in these tests, tags left out.
UniProt P48067, whole entry: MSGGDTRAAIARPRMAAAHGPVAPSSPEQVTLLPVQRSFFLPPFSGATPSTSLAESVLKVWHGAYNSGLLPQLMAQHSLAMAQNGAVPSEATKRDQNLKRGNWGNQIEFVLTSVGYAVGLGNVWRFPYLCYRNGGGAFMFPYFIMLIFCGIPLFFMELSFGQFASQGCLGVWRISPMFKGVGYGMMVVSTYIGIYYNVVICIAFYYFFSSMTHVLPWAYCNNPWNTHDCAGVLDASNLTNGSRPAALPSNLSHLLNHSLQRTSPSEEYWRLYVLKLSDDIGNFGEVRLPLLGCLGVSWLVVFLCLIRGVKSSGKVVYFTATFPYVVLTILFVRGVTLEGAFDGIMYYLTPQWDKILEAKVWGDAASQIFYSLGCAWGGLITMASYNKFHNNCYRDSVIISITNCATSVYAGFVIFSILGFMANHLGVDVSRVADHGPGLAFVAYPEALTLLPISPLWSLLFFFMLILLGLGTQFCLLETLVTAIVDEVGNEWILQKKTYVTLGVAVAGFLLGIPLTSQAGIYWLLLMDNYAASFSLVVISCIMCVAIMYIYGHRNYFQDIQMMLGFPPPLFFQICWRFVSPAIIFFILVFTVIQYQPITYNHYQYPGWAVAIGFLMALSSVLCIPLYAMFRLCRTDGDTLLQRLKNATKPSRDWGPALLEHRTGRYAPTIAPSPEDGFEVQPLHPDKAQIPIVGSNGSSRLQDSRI

For the molecule `Cn1cc(S(=O)(=O)NCCOc2ccc3c(c2)C(Cc2ccccc2)C(N2CCCC2)CC3)cn1` (stereo not shown), the Ki is no more than 10 nM.

(Values after US9067871B2, “Aminotetraline derivatives, pharmaceutical compositions containing them, and their use in therapy” (ABBVIE DEUTSCHLAND GMBH & CO KG, priority 2009, dated 2015).)
